Data: ChEMBL document CHEMBL1148504, “Substituent effects of N-(1,3-diphenyl-1H-pyrazol-5-yl)benzamides on positive allosteric modulation of the metabotropic glutamate-5 receptor in rat cortical astrocytes” (J Med Chem, 2006)

Chains of the proteins cited; added tags and fusions are not shown.
UniProt P31424, whole entry: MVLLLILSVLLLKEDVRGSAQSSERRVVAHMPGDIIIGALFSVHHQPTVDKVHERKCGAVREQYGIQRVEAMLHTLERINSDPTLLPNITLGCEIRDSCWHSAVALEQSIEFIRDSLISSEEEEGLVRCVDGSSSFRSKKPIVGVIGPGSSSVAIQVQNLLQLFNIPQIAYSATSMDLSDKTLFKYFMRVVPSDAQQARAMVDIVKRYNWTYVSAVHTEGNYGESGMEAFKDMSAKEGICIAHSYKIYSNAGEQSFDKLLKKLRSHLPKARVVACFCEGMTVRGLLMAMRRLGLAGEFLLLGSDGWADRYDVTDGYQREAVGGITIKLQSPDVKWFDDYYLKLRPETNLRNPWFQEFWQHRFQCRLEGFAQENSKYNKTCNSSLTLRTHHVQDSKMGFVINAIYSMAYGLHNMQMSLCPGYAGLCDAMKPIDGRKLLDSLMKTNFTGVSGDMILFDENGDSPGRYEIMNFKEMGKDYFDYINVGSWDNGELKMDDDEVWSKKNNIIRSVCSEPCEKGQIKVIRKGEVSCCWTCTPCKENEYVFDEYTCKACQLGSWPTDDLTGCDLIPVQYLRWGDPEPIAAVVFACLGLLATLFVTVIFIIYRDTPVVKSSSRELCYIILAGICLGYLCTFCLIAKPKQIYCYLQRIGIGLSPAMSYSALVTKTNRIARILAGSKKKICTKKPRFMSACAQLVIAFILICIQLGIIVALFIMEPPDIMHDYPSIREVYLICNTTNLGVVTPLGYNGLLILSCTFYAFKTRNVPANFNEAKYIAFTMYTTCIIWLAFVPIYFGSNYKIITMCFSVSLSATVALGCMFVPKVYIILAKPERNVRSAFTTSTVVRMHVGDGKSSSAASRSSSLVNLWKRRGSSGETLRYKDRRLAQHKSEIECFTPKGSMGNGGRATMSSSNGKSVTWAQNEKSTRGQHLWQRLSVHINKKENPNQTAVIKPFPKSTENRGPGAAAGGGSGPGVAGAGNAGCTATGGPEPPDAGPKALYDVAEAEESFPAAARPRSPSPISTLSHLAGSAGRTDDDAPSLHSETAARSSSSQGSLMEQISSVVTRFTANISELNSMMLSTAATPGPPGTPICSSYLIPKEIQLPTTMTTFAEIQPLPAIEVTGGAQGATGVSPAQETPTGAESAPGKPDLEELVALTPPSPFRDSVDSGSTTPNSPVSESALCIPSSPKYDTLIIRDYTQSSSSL

Tests used:
[1] = molecular target: T1, Metabotropic glutamate receptor 5 (Rattus norvegicus, UniProt P31424); test: Displacement of [3H]methoxyPEPy from rat mGluR5 expressed in HEK293 cells; type: cell-based
How it was run: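 Membranes from stable HEK cells expressing rat mGluR5a, resuspended in 50 mM Tris HCl/0.9% saline, pH 7.4. Final: 2 nM [3H]methoxyPEPy, 0.1 mg protein/mL, 0.13% DMSO, triplicate; 60 min at room temperature with shaking. Filtration onto GF/B filters, scintillation counting. Nonspecific binding with 5 µM MPEP. Ki derived from IC50 by nonlinear fit; mean ± SEM of three experiments.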

[2] = molecular target: T1, Metabotropic glutamate receptor 5; test: Activity at mGluR5 assessed as potentiation of glutamate-induced calcium flux in rat astrocytes; type: functional, cell-based
How it was run: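 Cortical astrocytes from 2-4-day-old Sprague Dawley rats, grown 1 week in DMEM/10% FBS/2 mM glutamine/20 mM HEPES at 37 °C, 5% CO2, then plated on poly-D-lysine. Dye-loaded 1 h at 37 °C; HBSS with 20 mM HEPES, 2.5 mM probenecid, pH 7.4.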

Ki [1]: 3760 nM
EC50 [2]: 77 nM
SMILES: N#Cc1cccc(C(=O)Nc2cc(-c3ccccc3)nn2-c2ccccc2)c1
